Our source for the IC50 values is patent US6479487B1, “6, 9-disubstituted 2-[trans-(4-aminocyclohexyl)amino] purines” (Aventis Pharmaceuticals Inc., priority 1998, dated 2002).

The chains behind the UniProt entries cited, without tags or fusion partners.
UniProt P11802, whole entry: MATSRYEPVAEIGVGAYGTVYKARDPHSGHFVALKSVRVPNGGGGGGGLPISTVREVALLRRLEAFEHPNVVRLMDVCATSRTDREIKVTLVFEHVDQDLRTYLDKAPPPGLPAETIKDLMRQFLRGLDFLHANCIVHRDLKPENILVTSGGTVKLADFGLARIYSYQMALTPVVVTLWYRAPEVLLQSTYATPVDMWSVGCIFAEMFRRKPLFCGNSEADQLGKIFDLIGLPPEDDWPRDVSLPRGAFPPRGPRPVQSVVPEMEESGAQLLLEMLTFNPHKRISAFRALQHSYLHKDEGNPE
UniProt P24385, whole entry partner: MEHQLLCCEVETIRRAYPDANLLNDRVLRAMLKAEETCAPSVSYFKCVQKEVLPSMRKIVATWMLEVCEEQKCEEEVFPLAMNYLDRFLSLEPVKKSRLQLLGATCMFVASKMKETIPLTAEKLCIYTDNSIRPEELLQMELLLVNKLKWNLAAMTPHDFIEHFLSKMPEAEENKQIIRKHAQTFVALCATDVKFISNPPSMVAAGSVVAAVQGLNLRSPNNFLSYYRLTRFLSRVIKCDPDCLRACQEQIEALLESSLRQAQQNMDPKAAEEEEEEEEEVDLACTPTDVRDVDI

Several values for one entry are separate records, joined by “and”; a condition that tells them apart may be missing. Equal entries are not always repeated. Structures can show the parent of a compound that is named as a salt.

The test system of one assay is MDA-MB-231. As to the kind of experiment: In vitro tumor cell proliferation, MDA-MB-231. It is filed as cell-based, human. The settings on record: read-out: In vitro Tumor Cell Proliferation (IC50, μM) Breast MDA-MB-231, sulforhodamine B or CyQUANT assay, many values given with an undefined *.
A further assay concerns MDA-MB-435. Nature of the assay: In vitro tumor cell proliferation, MDA-MB-435. It is filed as cell-based. The settings on record: read-out: In vitro Tumor Cell Proliferation (IC50, μM) Breast MDA-MB-435, values given with an undefined *.
The next assay deals with cdk4/cyclin D1 (Homo sapiens, UniProt P11802). As to the kind of experiment: Cyclin-dependent Kinase 4 Assay (cdk4/cyclin D1, GST-Rb substrate). It is filed as biochemical. Conditions: read-out: CDK4 Inhibition IC50, cdk4/cyclin D1 insect cell lysate, 10 μM ATP, 30 min at 37° C., several values = separate determinations.
For a further assay, the system named is A549. Nature of the assay: In vitro tumor cell proliferation, A549. It counts as cell-based, human. The settings on record: read-out: In vitro Tumor Cell Proliferation (IC50, μM) Lung A549, many values given with an undefined *.
Another assay concerns Colo-205. As to the kind of experiment: In vitro tumor cell proliferation, Colo-205. It is filed as cell-based. The settings on record: read-out: In vitro Tumor Cell Proliferation (IC50, μM) Colon Colo-205, values given with an undefined *.
The subject of another assay is DMS-114. Nature of the assay: In vitro tumor cell proliferation, DMS-114. It is filed as cell-based, human. Conditions: read-out: In vitro Tumor Cell Proliferation (IC50, μM) Lung DMS-114, many values given with an undefined *.
In the next assay the test system is PC-3. As to the kind of experiment: In vitro tumor cell proliferation, PC-3. It is filed as cell-based, human. Conditions: read-out: In vitro Tumor Cell Proliferation (IC50, μM) Prostate PC-3, many values given with an undefined *.
In another assay the test system is DU145. As to the kind of experiment: In vitro tumor cell proliferation, DU145. It is filed as cell-based, human. Conditions: read-out: In vitro Tumor Cell Proliferation (IC50, μM) Prostate DU145, many values given with an undefined *.
In a further assay the test system is HT-29. As to the kind of experiment: In vitro tumor cell proliferation, HT-29. Conditions: read-out: In vitro Tumor Cell Proliferation (IC50, μM) Colon HT-29, many values given with an undefined *. It is filed as cell-based, human.

Take `Cc1ccc(CN2CCC(Nc3nc(N[C@H]4CC[C@H](N)CC4)nc4c3ncn4C3CCCC3)CC2)cc1Cl` [Example 147-y, 2-[Trans-(4-aminocyclohexyl)amino]-6-[4-[1-(3-chloro-4-methylbenzyl)]piperidinylamino]-9-cyclopentylpurine trihydrochloride]: the IC50 in the assay on MDA-MB-231 is 0.43 µM and 0.29 µM; with MDA-MB-435, 0.38 µM and 0.35 µM; at cdk4/cyclin D1, 7400 nM and 7100 nM; in the assay on A549, 0.27 µM and 0.22 µM; with Colo-205, 0.25 µM; in the assay on DMS-114, 0.4 µM and 0.26 µM. Also, the IC50 with PC-3 is 0.28 µM and 0.32 µM; in the assay on DU145, 0.31 µM and 0.32 µM; in the assay on HT-29, 0.4 µM and 0.3 µM.
